# Laboratory results reported in PubChem BioAssay AID2462 (Broad Institute, 2010).
# Only a part is listed here, and it is no random draw. Activity calls are given as the source filed them.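 Rule for the calls: active = over half of replicate activation scores above 10%, or exactly half above 10 with the replicate mean above 10; inconclusive = replicate mean below 10 yet half the replicates above 10; inactive = over half of replicates below 10.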
# Experiment: caspase 3/7 activation in MEF A1-2A-BIM cells, primary screen, A1 inhibitor project, cell-based, luminescence, HTS (AID 2462)
# Details: Caspase-Glo 3/7 luminescence, 3 h, hits give high values, percent of clofoctol response, vehicle zero, concentration not given here
row,Compound,caspase activation
1,Cc1nn(-c2ccccc2)c2c1P(=O)(N1CCOCC1)N(C)C(c1ccccc1)=N2 (centres undefined),inactive: 0.367%
2,COc1cc(C2NCCC3(OCCO3)C2(C)C)cc(OC)c1OC.O=[N+]([O-])c1cc([N+](=O)[O-])c(O)c([N+](=O)[O-])c1 (centres undefined),inactive: 0.711%
3,CCOC(=O)C(CC)C1=NC(C)(C)Cc2ccccc21.O=[N+]([O-])c1cc([N+](=O)[O-])c(O)c([N+](=O)[O-])c1 (centres undefined),inactive: 0.802%
4,CN(C)C1(CNC(=O)c2ccc(S(C)(=O)=O)cc2)CCCCC1,inactive: 0.414%
5,CC1=C2N=C(C=C3N=C(C(C)=C4[N-][C@@](C)([C@@H]5N=C1[C@](C)(CCC(=O)NC[C@@H](C)OP(=O)([O-])O[C@H]1[C@@H](O)[C@@H](n6cnc7cc(C)c(C)cc76)O[C@@H]1CO)[C@H]5CC(N)=O)[C@@](C)(CC(N)=O)[C@@H]4CCC(N)=O)[C@@](C)(CC(N)=O)[C@@H]3CCC(N)=O)C(C)(C)[C@@H]2CCC(N)=O.[C-]#N.[Co+3],inactive: -1.06%
6,O=[N+]([O-])c1cc([N+](=O)[O-])c(Nc2nnnn2CCO)c([N+](=O)[O-])c1,inactive: -1.84%
7,O=C(/C=C/c1ccccc1)OC1CN2CCC1CC2 (centres undefined),inactive: -0.586%
8,NC(=O)Nc1ccc([As](=O)(O)O)cc1,inactive: 0.797%
9,CCOP1(=S)c2c(C)nn(CCC#N)c2N=C(c2ccc(F)cc2)N1C (centres undefined),inactive: -0.000755%
10,CN(C(=O)Cc1ccccc1)[C@@H]1CC[C@]2(CCCO2)C[C@H]1N1CCCC1,inactive: 0.279%
11,N#CCCN(C(=O)COC(=O)C(O)(c1ccccc1)c1ccccc1)c1ccc(F)cc1,inactive: 0.38%
12,CC1=NCCc2c1[nH]c1ccccc21.O=[N+]([O-])c1cc([N+](=O)[O-])c(O)c([N+](=O)[O-])c1,inactive: 0.698%
13,CN(C(=O)Cc1ccc(Cl)c(Cl)c1)[C@H]1CC[C@@]2(CCCO2)C[C@@H]1N1CCCC1,inactive: -0.481%
14,O=[N+]([O-])c1ccc2c(c1)nnn2O,inactive: 0.125%
15,CN(C)C(=O)c1cc([N+](=O)[O-])cc2c1-c1c(cc([N+](=O)[O-])cc1[N+](=O)[O-])C2=O,inactive: -0.015%
16,O=P(Nc1nccs1)(Oc1ccccc1)Oc1ccccc1,inactive: 0.284%
17,O=P(Nc1nccs1)(c1ccccc1)c1nc2ccccc2s1 (centres undefined),inactive: -0.602%
18,CCOP1(=S)c2c(C)nn(CCC#N)c2N=C(c2ccccc2F)N1C (centres undefined),inactive: 0.616%
19,O=C(O)c1cccc(Nc2c([N+](=O)[O-])cc([N+](=O)[O-])cc2[N+](=O)[O-])c1,inactive: 0.815%
